The experiment concerns the target Coagulation factor X (Homo sapiens, UniProt P00742). The experiment can be described thus: In vitro inhibition of Coagulation factor X.

Protein sequences, listed by entry. Tags and fused reporters are not part of them. Residues count along the entry.
UniProt P00742, 41-179 limits assumed: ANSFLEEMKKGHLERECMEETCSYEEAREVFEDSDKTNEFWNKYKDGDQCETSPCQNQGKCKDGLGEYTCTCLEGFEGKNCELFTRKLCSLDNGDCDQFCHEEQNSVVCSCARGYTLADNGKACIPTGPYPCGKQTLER
UniProt P00742, 235-488 limits assumed: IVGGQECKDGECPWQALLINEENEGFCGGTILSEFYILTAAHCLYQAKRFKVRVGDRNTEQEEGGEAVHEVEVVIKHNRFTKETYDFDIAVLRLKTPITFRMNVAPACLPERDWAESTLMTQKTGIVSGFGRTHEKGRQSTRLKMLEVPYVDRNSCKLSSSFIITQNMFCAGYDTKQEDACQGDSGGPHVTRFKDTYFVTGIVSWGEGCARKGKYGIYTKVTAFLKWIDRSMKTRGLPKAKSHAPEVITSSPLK

Usually Ki stands for the dissociation constant of the complex between target and ligand, obtained from inhibition or displacement. A low value points to a stronger hold on the target. For the molecule `N=C(N)c1ccc(CCC(CC(=O)O)c2cccc(C(=N)N)c2)cc1` (stereo unspecified), the affinity, expressed as Ki, was 1400 nM.

These data come from ChEMBL document CHEMBL1131205, “Rational design and synthesis of novel, potent bis-phenylamidine carboxylate factor Xa inhibitors” (J Med Chem, 1998).
